This is an account of results in ChEMBL document CHEMBL3244030, “2-Methoxyphenylethanolamines, potential beta-adrenergic blocking agents” (J Med Chem, 1978).

The chains behind the UniProt entries cited, without tags or fusion partners.
UniProt Q8K4Z4, whole entry: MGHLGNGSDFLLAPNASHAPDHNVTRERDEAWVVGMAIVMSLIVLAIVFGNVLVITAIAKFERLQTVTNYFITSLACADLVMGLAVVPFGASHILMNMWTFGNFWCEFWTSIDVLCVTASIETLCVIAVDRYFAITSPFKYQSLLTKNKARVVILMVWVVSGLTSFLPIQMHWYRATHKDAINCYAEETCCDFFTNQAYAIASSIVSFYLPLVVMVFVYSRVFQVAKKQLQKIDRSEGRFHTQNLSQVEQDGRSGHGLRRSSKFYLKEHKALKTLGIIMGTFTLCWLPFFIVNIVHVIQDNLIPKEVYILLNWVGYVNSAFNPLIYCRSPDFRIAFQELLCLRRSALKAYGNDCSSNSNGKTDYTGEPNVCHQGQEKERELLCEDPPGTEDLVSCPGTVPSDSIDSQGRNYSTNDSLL

For one experiment, the species on record is Cavia porcellus. The experiment in a line: Selectivity ratio for beta1 adrenoceptor in guinea pig atrium over beta2 adrenoceptor in guinea pig trachea. Conditions: Cardiac atrium. It counts as tissue-based.
Experiment [1] concerns the target Beta-2 adrenergic receptor (Cavia porcellus, UniProt Q8K4Z4). The experiment in a line: Antagonist activity at beta2 adrenoceptor in guinea pig trachea assessed as inhibition of isoproterenol-induced response after 20 mins. The settings on record: read-out: pA2 (converted).

In the case of `CC(C)NCC(O)COc1ccc(CC(N)=O)cc1` (configuration not stated) [ATENOLOL], the Selectivity ratio in the experiment listed under Cavia porcellus is 30. The Kb in experiment [1] was 1260 nM.
